The source of these data is patent publication US20170252410A1.

The assay concerns the target insulin receptor, isoform B (UniProt P06213). In words: cell-based or functional assay.

“VitD-(3)-PEG1.2K-insulin (ligand; lysine 29 conjugated to one VitD-(3)-PEG1.2K carrier (1.2 kDa PEG scaffold on the 3 position of non-hormonal vitamin D, from VitD-(3)-PEG1.3K-NHS))” had an EC50 (PathHunter U2OS INSRb Functional Assay, receptor activation by beta-galactosidase complementation) of 0.282 mg/L.
The substance human insulin (unmodified) (ligand) returned an EC50 (PathHunter U2OS INSRb Functional Assay, receptor activation by beta-galactosidase complementation) of 0.0079 mg/L.
